{"source": "patent US8299062B2", "about": "“Pharmaceutical compositions and methods for preventing, treating, or reversing neuronal dysfunction” (dated 2012)", "origin": "cited, not measured here", "key": {"[1]": {"conditions": "preclinical studies"}, "[2]": {"conditions": "oral"}, "[3]": {"conditions": "tablet, oral"}, "[4]": {"biological_target": "NMDA receptor (Rattus norvegicus, UniProt P35439)", "conditions": "listed as (−)-huperzine A"}, "[5]": {"test_system": "AChE", "conditions": "given less than 3 hours prior to soman exposure"}}, "note": "Read-outs that look alike come from different tables or passages of the source."}
{"compound": "CN1[C@@H]2CC[C@H]1C[C@@H](OC(=O)C(CO)c1ccccc1)C2", "note": "(some centres unmarked)", "values": [{"measurement": "effect on acute toxicity associated with huperzine A", "setting": "[1]", "value": "reduced acute toxicity"}]}
{"compound": "C/C=C1\\[C@H]2C=C(C)C[C@]1(N)c1ccc(=O)[nH]c1C2", "values": [{"measurement": "patients showing side effects", "setting": "1200 μg/day", "value": "approximately 50%"}, {"measurement": "tolerability", "setting": "daily oral 300-400 μg", "value": "well tolerated with a low incidence of side effects"}, {"measurement": "time to peak plasma concentrations", "setting": "[2]", "value": "10 to 30", "unit": "min"}, {"measurement": "elimination half-life", "setting": "[3]", "value": "approximately 288.5 minutes"}, {"measurement": "time to peak plasma concentrations", "setting": "[3]", "value": "approximately 79.6 minutes"}]}
{"compound": "5,9-Methanocycloocta(b)pyridin-2(1H)-one, 5-amino-11-ethylidene-5,6,9,10-tetrahydro-7-methyl-, (5R,9R,11E)-", "values": [{"measurement": "NMDA receptor / calcium ion channel block, potency of the enantiomers compared", "setting": "[4]", "value": "equal potency"}]}
{"compound": "CN(C)C(=O)Oc1ccc[n+](C)c1", "values": [{"measurement": "AChE inhibition after soman exposure", "setting": "[5]", "value": "increased levels of AChE inhibition"}]}
